In PubChem BioAssay AID902 (National Center for Advancing Translational Sciences (NCATS), 2007):
The entries are a selection whose mix differs from that of the whole data set. Inconclusive results are not listed. The source made the active and inactive calls. The call rests on the fitted dose curve; in most records, active means well fitted cell-killing curve with a large enough effect; inconclusive means small, poorly fitted or top-dose-only effect; inactive means no such curve, though single readings can be large or run the other way.

Experiment: qHTS Screen for Compounds that Selectively Target Cancer Cells with p53 Mutations: Cytotoxicity of p53ts Cells at the Nonpermissive Temperature; further: nearly all actives have a fitted effect of over 55% in size
Settings: H1299-p53A138V viability at 39C, ATP luminescence, 24 h
Potency means the concentration at half of the fitted maximal effect.

SMILES | Potency
C=CC(=O)OCCOCCOCCOCCOC(=O)C=C | active: 31.6 µM
CNCCCCCCCCSc1nc(C(C)C)ccc1C(=O)c1cccs1 | active: 31.6 µM
